# According to PubChem BioAssay AID602182 (The Scripps Research Institute Molecular Screening Center, 2012):
# The entries are a selection whose mix differs from that of the whole data set. Active and inactive are the calls of the source. How the calls were made is not given here.
# Assay: GFP fluorescence inhibitors and quenchers, dose response, artefact control for Rin1-Abl interaction inhibitor project, biochemical (AID 602182);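 further: ABL1-eGFP fusion protein alone without its RIN1 binding partner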
# Conditions: GFP fluorescence interference/quenching counterscreen
compound,measurement,value
CCC(c1nnnn1C1CCCCC1)N1CCC(n2c(=O)[nH]c3ccccc32)CC1 (stereo unspecified),IC50,inactive: > 67.6 µM
